The record followed here is US11484608B2, “Non-invasive assessment of hepatic mitochondrial metabolism by positional isotopomer NMR tracer analysis (PINTA)” (YALE UNIVERSITY, priority 2017, dated 2022).

In this series the test system is hepatic glucose production, VPC and VCS (InsP3R-I signaling). Nature of the series: Acute 2 hr glucagon infusion in WT and liver-specific InsP3R-I KO mice. The settings on record: acute infusion 5 ng kg^−1 min^−1, 2 hr, overnight-fasted mice. From the text:
All protocols were approved by the Yale University Animal Care and Use Committee. Liver-specific InsP3R-I KO mice were generated as described (Feriod, et al. Hepatology Communications 1, 23-35, 2017) and in all experiments, littermates were studied at 10-12 weeks of age. They were fed standard chow (Teklad #2018) and housed on a 12 hr light/dark cycle in the Yale Animal Resources Center. To knock down ATGL in a liver-specific manner, an adeno-associated virus targeting ATGL (Vector BioLabs, 10^12 gc per mouse) was administered by retro-orbital injection four weeks prior to studies. […]
Total glucose turnover (i.e. hepatic glucose production) was measured by determining the specific activity of [^3H] glucose in plasma using a scintillation counter, and the VPC/VHGP ratio was calculated using the equation
[formula] and calculated absolute VCS by dividing VPC by VPC/VCS. […] Liver [^13C] bicarbonate enrichment was measured by GC-MS (HP-1 column: 12 m×0.2 mm×0.33 μm film, isothermal: 110° C.). […] After ten minutes, CO2 was sampled from the head-space and ions with m/z 44 and 45 daltons were monitored using electron impact ionization.
Plasma glucose concentrations were measured using a YSI Glucose Analyzer. […] Plasma NEFA concentrations were measured using the Wako NEFA assay, while plasma glycerol and plasma and liver amino acid concentrations were measured by GC/MS. […]

Turning to glucagon, the “rise in plasma glucagon concentrations” value was “approximately five-fold”.
